The source of these data is PubChem BioAssay AID624040 (The Scripps Research Institute Molecular Screening Center, 2012).

By UniProt entry, the sequences of proteins in these tests, tags left out.
UniProt P08912, whole entry: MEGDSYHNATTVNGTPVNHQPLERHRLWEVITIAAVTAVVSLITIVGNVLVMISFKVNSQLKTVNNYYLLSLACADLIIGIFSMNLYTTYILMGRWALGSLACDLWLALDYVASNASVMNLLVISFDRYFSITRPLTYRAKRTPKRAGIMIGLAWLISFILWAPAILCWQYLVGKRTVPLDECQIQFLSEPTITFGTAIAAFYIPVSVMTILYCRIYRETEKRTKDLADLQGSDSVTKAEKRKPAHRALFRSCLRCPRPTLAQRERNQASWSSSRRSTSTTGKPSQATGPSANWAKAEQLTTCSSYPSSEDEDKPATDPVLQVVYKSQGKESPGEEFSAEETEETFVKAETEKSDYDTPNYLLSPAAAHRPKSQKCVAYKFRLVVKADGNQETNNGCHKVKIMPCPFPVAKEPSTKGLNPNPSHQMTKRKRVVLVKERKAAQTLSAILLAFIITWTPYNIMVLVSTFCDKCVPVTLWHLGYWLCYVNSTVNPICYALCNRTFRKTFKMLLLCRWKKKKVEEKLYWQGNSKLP

A word on the inhibition: it is the relative decrease from the control value, in per cent.

This is a selection; strong and weak results do not stand in their true shares. Active and inactive are the calls of the source.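 The calls were made as follows: active = inhibition above a per-plate cutoff, the mean of that plate's test compounds plus 3 SD (cut at about 27% in these data); inactive = the rest.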

For this experiment, the target named is Muscarinic acetylcholine receptor M5 (Homo sapiens) (UniProt P08912). In words: human M5 muscarinic receptor antagonists, primary screen, CHO cells, Fluo-8 calcium fluorescence (AID 624040).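 Also: 0% = acetylcholine EC80 with DMSO and 100% = DMSO without agonist.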 The following applies: CHO-hM5 cells, ACh EC80, at 3 µM, active compounds read high.
On to `CP(=O)(OCCOc1ccccc1)OCCOc1ccccc1`, for which the inhibition is inactive: 2.86%.

For the compound `CCCCCCCCCCCCCCCC1C[N+](C)(C)CCOP(C)(=O)O1` (configuration not stated), the inhibition was inactive: 21.8%.

With `CP(=O)(Nc1ccc(Cl)cc1Cl)Oc1ccccc1` (configuration not stated), the inhibition is inactive: 0.07%.

Regarding `COc1ccccc1OP(C)(=O)Nc1ccc(C)c(C)c1` (configuration not stated), the inhibition was inactive: 1.89%.

Turning to `COc1ccc(OP(C)(=O)Nc2ccccc2Br)cc1` (configuration not stated), the inhibition was inactive: -3.17%.

For `Cc1cc(C)cc(OP(C)(=O)Nc2cccc(C(F)(F)F)c2)c1` (configuration not stated), the inhibition was inactive: -18.6%.

Turning to `O=C1C(O)=C([N+](=O)[O-])C(=O)C(O)=C1[N+](=O)[O-]`, the inhibition was inactive: 15.8%.

`COc1ccccc1OP(C)(=O)Nc1ccc(C)cc1C` (configuration not stated): the inhibition is inactive: -2.23%.

On to `CP(=O)(Nc1ccccn1)Oc1ccccc1` (configuration not stated), for which the inhibition is inactive: -11%.

Take `CCc1ccc(OP(C)(=O)O)cc1`: the inhibition was inactive: -5.8%.

As for `O=[N+]([O-])c1cc([N+](=O)[O-])c(Nc2ccccn2)c([N+](=O)[O-])c1`, the inhibition is inactive: 4.74%.

As for `Cc1c(NP(C)(=O)Oc2ccc(C(C)C)cc2)c(=O)n(-c2ccccc2)n1C` (configuration not stated), the inhibition was inactive: -0.22%.

In the case of `COc1ccc(OP(C)(=O)Nc2ccccn2)cc1` (configuration not stated), the inhibition was inactive: -3.84%.

For the compound `COc1ccccc1OP(C)(=O)Nc1ccc(Br)cc1` (configuration not stated), the inhibition is inactive: 7.44%.

With `CN(C)C(=O)c1c([N+](=O)[O-])cc([N+](=O)[O-])cc1[N+](=O)[O-]`, the inhibition was inactive: -7.71%.

Take `CC(C)(C)c1ccc(OP(C)(=O)O)cc1`: the inhibition was inactive: -1.24%.

As for `COc1ccccc1OP(C)(=O)Nc1ccccc1Br` (configuration not stated), the inhibition was inactive: 4.66%.

Consider `CP(=O)(Nc1ccc(Cl)cc1)Oc1ccc(F)cc1` (configuration not stated), for which the inhibition was inactive: 8.5%.

As for `COc1ccccc1OP(C)(=O)Nc1c(C)n(C)n(-c2ccccc2)c1=O` (configuration not stated), the inhibition is inactive: 3.06%.

As to `CCc1ccc(OP(C)(=O)Nc2cccnc2)cc1` (configuration not stated), the inhibition was inactive: -9.01%.

As for `CP(=O)(Oc1ccccc1)N1CCOC1=O` (configuration not stated), the inhibition was inactive: -2.79%.

On to `COc1ccc(OP(C)(=O)Nc2ccc(Br)cc2)cc1` (configuration not stated), for which the inhibition was inactive: -1.09%.

For `CCOC(=O)c1ccc(NP(C)(=O)Oc2ccc(Cl)cc2)cc1` (configuration not stated), the inhibition is inactive: -3.76%.

In the case of `CP(=O)(OC12CC3CC(CC(C3)C1)C2)OC12CC3CC(CC(C3)C1)C2`, the inhibition was inactive: 3.25%.

As for `Cc1c(C(c2ccc3c(c2)OCO3)c2c(C)n(C)n(-c3ccccc3)c2=O)c(=O)n(-c2ccccc2)n1C.O=[N+]([O-])c1cc([N+](=O)[O-])c(O)c([N+](=O)[O-])c1`, the inhibition is inactive: 11.6%.

Turning to `O=C(OC1CN2CCC1CC2)c1cccc(Cl)c1` (configuration not stated), the inhibition is active: 32%.

Take `O=[N+]([O-])c1ccc(OP2(=O)COCCO2)cc1` (configuration not stated): the inhibition was inactive: 1.44%.
